# According to US20100137222A1, “Basic Peptides and Their Use as Combined Antibacterial-Antifungine Agents” (NOVABIOTICS LIMITED, priority 2007, published 2010):
# Marks after values point to notes of the source that are not given here.
# Legend:
# P. acnes DSM1897 = format: cell-based, Propionibacterium acnes
# Protocol: Broth Dilution Antibacterial Susceptibility Testing
# The sensitivity of relevant bacterial strains to peptides was determined using Clinical Laboratory Standard Institute (CLSI; formerly NCCLS) Approved Standards. Bacterial susceptibility was tested using “Methods for Dilution Antimicrobial Susceptibility Tests for Bacteria That Grow […]; Approved Standard—Seventh Edition M7-A7”
# M. furfur DSM6170 = format: cell-based, Malassezia furfur
# Protocol: Broth Dilution Antifungal Susceptibility Testing
# The sensitivity of relevant fungal strains to peptides was determined using Clinical Laboratory Standard Institute (CLSI; formerly NCCLS) Approved Standards. Yeast susceptibility was tested using “Reference Method for Broth Dilution Antifungal Susceptibility Testing of Yeasts; Approved Standard—Second Edition M27-A”.
Antimicrobial Activity (MIC) P. acnes DSM1897 (P. acnes DSM1897),Antimicrobial Activity (MIC) M. furfur DSM6170 (M. furfur DSM6170),SMILES
>10* mM,1* mM,"NCCCC[C@H](NC(=O)[C@H](CCCCN)NC(=O)[C@@H](N)CCCCN)C(=O)O [NP342, KKK]"
<0.0156 mM,0.25 mM,"N=C(N)NCCC[C@H](NC(=O)[C@H](CCCNC(=N)N)NC(=O)[C@H](CCCNC(=N)N)NC(=O)[C@H](CCCNC(=N)N)NC(=O)[C@H](CCCNC(=N)N)NC(=O)[C@H](CCCNC(=N)N)NC(=O)[C@H](CCCNC(=N)N)NC(=O)[C@H](CCCNC(=N)N)NC(=O)[C@H](CCCNC(=N)N)NC(=O)[C@H](CCCNC(=N)N)NC(=O)[C@H](CCCNC(=N)N)NC(=O)[C@H](CCCNC(=N)N)NC(=O)[C@H](CCCNC(=N)N)NC(=O)[C@H](CCCNC(=N)N)NC(=O)[C@@H](N)CCCNC(=N)N)C(=O)O [NP319, RRRRRRRRRRRRRRR]"
